In patent US20220193256A1, “NANO-ANTIBIOTICS BASED ON SINGLE-CHAIN DEXTRAN NANOPARTICLES” (priority 2019, published 2022):

How the values were obtained:
E. coli ATCC BAA-2469 = experiment: MIC, antimicrobial susceptibility test (CLSI M07-A10); assay type: cell-based; conditions: replicates 1 and 2, as tobramycin concentration
Experimental: (§1) All test and quality control strains were recovered from frozen storage (−80° C.) and cultured at 35±2° C. for 18-24 h.
(§2) All test articles were dissolved in sterile ultra-pure water at a concentration of 2.56 mg/mL. […] 100 and 200 μL of drug-free medium was added to positive and negative control wells, respectively. Suspensions equivalent to a McFarland 0.5 standard were prepared for each test strain in 5 mL sterile phosphate-buffered saline (PBS) and further diluted 1:150 in CA-MHB to provide an inoculum of 2-8×10^5 CFU/mL. 100 μL of each inoculum was dispensed into all wells—except negative control wells (100 μL sterile water added)—to provide an inoculum of ˜5×10^5 CFU/well and a final volume of 200 μL per well. Assay plates were incubated according to CLSI M07-A10 guidelines of 35±2° C. for 16-20 h in air.

[1] = system: K. pneumoniae ATCC BAA-2146; experiment: as above; assay type: cell-based; conditions: replicates 1 and 2, as tobramycin concentration
Experimental: as §1, §2

Which “Test Article MIC” value (E. coli ATCC BAA-2469) does the source give for `NC[C@H]1O[C@H](O[C@H]2[C@H](O)[C@@H](O[C@H]3O[C@H](CO)[C@@H](O)[C@H](N)[C@H]3O)[C@H](N)C[C@@H]2N)[C@H](N)C[C@@H]1O` [Tobramycin, tobramycin] here?
The value was greater than 128 µg/mL.

And the “Test Article MIC” value [1]?
Its value is greater than 128 µg/mL.
